# Antibody variant affinities, Ab-14 light chain, assay B

Reference: Li et al. 2023, doi:10.1038/s41467-023-39022-2. File: FLAb, binding data.

All variants were tested on one target, the spike HR2 peptide PDVDLGDISGINAS (SARS-CoV-2).

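The starting antibody came from a phage panning campaign against this peptide. This is the validation round: designs drawn from the data on random variants, tested in the same kind of assay. Their group label is 14L_En_Gen (En: ensemble of fine-tuned language models; Gen: genetic algorithm). Affinity was read by AlphaSeq, a pooled yeast mating assay with surface-displayed partners. Binding brings cells together so that they mate, and sequencing counts the barcode pairs among the diploids. Scores were corrected for input abundance and mapped to Kd with protein pairs of known affinity run in the same pool. Each pool was mated in six replicate cultures.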

Each scFv is VH, three GGGGS repeats, VL, as in the parent Ab-14, and differs from it in the CDRs of the light chain only.
VH: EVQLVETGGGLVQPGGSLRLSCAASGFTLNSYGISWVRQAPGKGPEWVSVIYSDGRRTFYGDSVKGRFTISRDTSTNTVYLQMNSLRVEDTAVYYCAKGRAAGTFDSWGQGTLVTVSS
VL: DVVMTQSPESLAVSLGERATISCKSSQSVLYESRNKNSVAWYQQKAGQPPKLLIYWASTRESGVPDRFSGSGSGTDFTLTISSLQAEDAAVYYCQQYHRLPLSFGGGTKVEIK

Variants are written as CDR1, CDR2 and CDR3 of the light chain (limits as in the source). Parent: KSSQSVLYESRNKNSVA, WASTRES, QQYHRLPLS.
Values are log10 of the apparent Kd in nM; lower means stronger binding.
Replicates are averaged; those with no signal do not enter the mean.
A pair that was not seen in that replicate is written "nd"; this usually means weak binding, but a binder can also be missed.
Values of this round are not directly comparable with the first-round values of the same sequences.
As a blank, each scFv also met three strains without target: over all light chain designs, 4% of these pairings were detected, typically at 2.64 and seldom below 1.59. For each scFv, signals with the empty controls are counted beside the result.
The authors' rule: three or more of the six replicates give a measured affinity, fewer mean a poor binder.
Of ten entries with the parent sequence, four were seen in most replicates (averages 0.34 to 2.37), three in one and three in none, so single entries are noisy.

With MVNGIMDHLSKQTNNVA, EMTTREE, QQYERLPLS the result was 0.33, 0.54, 0.43, 0.71, 0.26, 0.58 (mean 0.48; controls 3 of 18).
With TISQMTSSFSQNINNVA, EVSTRCK, QQYDRLPLA the result was 1.23, 0.87, 0.61, 0.57, 0.76, 0.91 (mean 0.82; controls 0 of 18).
With KIGMTLNQLMQKKNNVA, DLVTREE, QQYHRLPLS the result was -0.33, -0.60, -0.67, -0.73, -0.37, -0.48 (mean -0.53; controls 0 of 18).
With TISQVMNTLSRHGNNVA, DLAERED, QQYFRLPLS the result was nd, 1.42, 1.50, 1.68, 0.71, 2.04 (mean 1.47; controls 0 of 18).
With KVSEFMRGLIKMKDSIA, DNDTRNS, QQYDRLPLS the result was 0.16, 0.20, 0.30, 0.25, 0.52, 0.66 (mean 0.35; controls 0 of 18).
With KISQMVRVGSTVSNSIA, EEATRSD, QQYHRLPLS the result was 0.54, 0.58, 0.45, 0.73, 0.59, 0.62 (mean 0.58; controls 1 of 18).
With TISNVMNTLSRHGNNVA, DLAERED, QQYFRLPLS the result was 0.30, 0.40, 0.31, 0.23, -0.21, 0.13 (mean 0.19; controls 1 of 18).
With MVSQIMLWGLHAKNSIA, EAQMRLN, QQYDRLPLI the result was nd, 0.91, nd, nd, 1.86, 2.05 (mean 1.60; controls 0 of 18).
With HISSLTLQGMRQRNSVA, QMTTREN, QQYDHLPLS the result was 0.90, 0.44, 0.31, 0.64, 0.49, 0.41 (mean 0.53; controls 0 of 18).
With KLSMVTGHMSMSKNNVA, EMETREN, QQYDRLPLS the result was 0.74, 0.83, 0.46, 0.81, 1.04, 0.97 (mean 0.81; controls 1 of 18).
With QLYEMMYELSGKTHSVA, DNSTRGE, QQYFRLPLD the result was 1.98, 2.30, 2.68, 2.07, 1.97, 1.77 (mean 2.13; controls 0 of 18).
With MISQLFNMGMFAINSVA, QASERCN, QQYDRLPLM the result was 1.43, 1.77, nd, nd, nd, nd (mean 1.60; controls 0 of 18).
With KLSGLMRVESKNKSNIA, EVNERSE, QQYDRLPLS the result was 2.25, 2.49, 2.58, 1.78, 0.93, 3.16 (mean 2.20; controls 1 of 18).
With KVSEFMRGLMRRQDSIA, DNETRSN, QQYDRLPLS the result was 1.80, 1.33, 1.55, 1.46, 1.98, 1.21 (mean 1.56; controls 1 of 18).
With MLSEVLHMLGVAKNSIA, DLVLRAN, QQYHRLPLM the result was nd, nd, nd, nd, nd, nd (controls 0 of 18).
With QLSMITGHVSMTKNNVA, EMETREN, QQYDRLPLS the result was -0.13, -0.07, 0.14, -0.17, -0.23, 0.18 (mean -0.05; controls 0 of 18).
With TISQTLMYGMRNRSNVA, EVSERLN, QQYDRLPLL the result was 1.63, 1.59, 2.50, 2.26, 2.02, 1.77 (mean 1.96; controls 0 of 18).
With KIGDTLNQLMTKKNNVA, DLVMREN, QQYFRLPLS the result was 0.95, 0.52, 0.58, 0.46, 0.61, 0.39 (mean 0.58; controls 0 of 18).
With MVYEATMMGGTARNSIA, NAQMRPN, QQYHRLPLI the result was 0.74, 0.05, 0.22, 0.25, 0.73, 0.63 (mean 0.44; controls 3 of 18).
With KLTMITGLEKVQGNNVA, EMETRER, QQYNRLPLA the result was 0.86, 0.80, 0.99, 0.75, 0.79, 0.94 (mean 0.85; controls 0 of 18).
With TISQVMNTLTREGNNVA, DLAERES, QQYFRLPLS the result was 1.69, 0.21, 0.20, 0.60, 0.42, 0.84 (mean 0.66; controls 1 of 18).
With IVSQLMMWGMHAKNSIA, EAQTRLN, QQYDRLPLF the result was nd, nd, 1.22, nd, nd, nd (controls 1 of 18).
With KLSQITGHMSVSKNNVA, EMETRAK, QQYDRLPLS the result was 0.77, 1.06, 1.25, 0.58, 0.97, 0.81 (mean 0.91; controls 3 of 18).
With TISQMQTLFSQSINNVA, EVSTRLN, QQYDRLPLA the result was 1.01, 0.96, 1.23, 0.65, 0.69, 0.65 (mean 0.86; controls 0 of 18).
With TISQMTALFNQTINNVA, EVSTREN, QQYDRLPLM the result was 1.36, 1.32, 0.46, 1.26, 1.20, 1.44 (mean 1.17; controls 1 of 18).
With KLTMITGLEKVSKNNVA, EMETRLQ, QQYNRLPLS the result was 0.53, 0.79, 0.71, 0.09, 0.07, 0.43 (mean 0.44; controls 0 of 18).
With KLQSITGTEKVRGNNVA, EMETRER, QQYNRLPLA the result was 0.18, 0.37, 0.18, -0.13, 0.02, 0.28 (mean 0.15; controls 0 of 18).
With MLSQMWAIGQKVSNSVA, QASMRFN, QQYDRLPLE the result was 1.27, nd, 1.52, 2.94, 1.69, 1.40 (mean 1.77; controls 1 of 18).
With MISQLNNMGSFAINSVA, QASLRNE, QQYDRLPLT the result was 0.28, 0.41, 0.56, 0.10, 0.39, 0.54 (mean 0.38; controls 1 of 18).
With KVSEFMRGLMMLKDSIA, DNQTRES, QQYDRLPLS the result was 1.76, 1.62, 1.04, 2.69, nd, 2.64 (mean 1.95; controls 1 of 18).
With KLTMISGLEKVSGNNVA, EMETRER, QQYNRLPLS the result was 1.07, 1.58, 1.22, 1.64, 0.82, 1.47 (mean 1.30; controls 3 of 18).
With KIGATLNTLYEQKNNVA, DLVEREN, QQYFRLPLS the result was 0.44, 0.05, 0.35, 0.30, 0.41, 0.57 (mean 0.35; controls 0 of 18).
With HVSMLTLGGLKERNSVA, QMTTREN, QQYDRLPLA the result was 1.09, 1.04, 0.66, 1.05, 1.14, 1.14 (mean 1.02; controls 1 of 18).
With MISQMYNMGQFAINSVA, QASQRNE, QQYDRLPLM the result was 0.85, 0.79, 0.61, 0.86, 0.79, 0.93 (mean 0.81; controls 0 of 18).
With HITYGMMVHGRHSSSIA, QAETRAK, QQYDRLPLS the result was 2.50, 1.78, nd, 3.05, nd, nd (mean 2.44; controls 0 of 18).
With KIGMTLNTLMHQKNNVA, DLVMREN, QQYHRLPLS the result was 0.49, 0.44, 0.42, 0.20, 0.30, 0.60 (mean 0.41; controls 1 of 18).
With KISQMVRVGSTVKNSIA, EMVTRAN, QQYHRLPLA the result was 0.76, 1.05, 0.81, 0.65, 0.64, 1.34 (mean 0.88; controls 0 of 18).
With IVSQMMLWGMHLKNSIA, EAQTRLN, QQYDRLPLF the result was nd, nd, 2.20, nd, nd, nd (controls 0 of 18).
With KLSMTMELEHVSRNSVA, ELVTRMS, QQYNRLPLS the result was 1.21, 1.24, 0.99, 0.84, 0.94, 0.83 (mean 1.01; controls 0 of 18).
With NISHFMDTTAKHNNNVA, EMEMREK, QQYHHLPLS the result was 0.94, 0.69, 0.78, 0.52, 0.47, 0.88 (mean 0.71; controls 0 of 18).
With MISTVMNTLTHEGNNVA, DLQEREK, QQYFRLPLS the result was 0.06, -0.14, 0.01, -0.43, 0.11, 0.10 (mean -0.05; controls 2 of 18).
With MISQLYNMGQFAINSVA, QASLRND, QQYDRLPLT the result was 0.45, 0.74, 1.04, 0.99, 0.71, 1.83 (mean 0.96; controls 0 of 18).
With TLYGLTNSMSKNKDNVA, EMSTREA, QQYDRLPLM the result was 1.64, 1.01, 1.36, 1.76, 1.30, 2.47 (mean 1.59; controls 1 of 18).

The 3 strongest on average among those seen in every replicate, once more:

CDR-L1,CDR-L2,CDR-L3,"log10 Kd, replicates",mean log10 Kd (nM),empty controls
KIGMTLNQLMQKKNNVA,DLVTREE,QQYHRLPLS,"-0.33, -0.60, -0.67, -0.73, -0.37, -0.48",-0.53,0/18
MISTVMNTLTHEGNNVA,DLQEREK,QQYFRLPLS,"0.06, -0.14, 0.01, -0.43, 0.11, 0.10",-0.05,2/18
QLSMITGHVSMTKNNVA,EMETREN,QQYDRLPLS,"-0.13, -0.07, 0.14, -0.17, -0.23, 0.18",-0.05,0/18